Experimental findings from patent US20040005550A1, “Methods and compositions useful for targeting activated vitronectin receptor alphavbeta3” (The Scripps Research Institute, priority 1998, published 2004) are described below.

The chains behind the UniProt entries cited, without tags or fusion partners. Residues count along the entry.
human αvβ3 integrin on cells (human), P06756, UniProt P06756, 31-1048, chain 1 of 2: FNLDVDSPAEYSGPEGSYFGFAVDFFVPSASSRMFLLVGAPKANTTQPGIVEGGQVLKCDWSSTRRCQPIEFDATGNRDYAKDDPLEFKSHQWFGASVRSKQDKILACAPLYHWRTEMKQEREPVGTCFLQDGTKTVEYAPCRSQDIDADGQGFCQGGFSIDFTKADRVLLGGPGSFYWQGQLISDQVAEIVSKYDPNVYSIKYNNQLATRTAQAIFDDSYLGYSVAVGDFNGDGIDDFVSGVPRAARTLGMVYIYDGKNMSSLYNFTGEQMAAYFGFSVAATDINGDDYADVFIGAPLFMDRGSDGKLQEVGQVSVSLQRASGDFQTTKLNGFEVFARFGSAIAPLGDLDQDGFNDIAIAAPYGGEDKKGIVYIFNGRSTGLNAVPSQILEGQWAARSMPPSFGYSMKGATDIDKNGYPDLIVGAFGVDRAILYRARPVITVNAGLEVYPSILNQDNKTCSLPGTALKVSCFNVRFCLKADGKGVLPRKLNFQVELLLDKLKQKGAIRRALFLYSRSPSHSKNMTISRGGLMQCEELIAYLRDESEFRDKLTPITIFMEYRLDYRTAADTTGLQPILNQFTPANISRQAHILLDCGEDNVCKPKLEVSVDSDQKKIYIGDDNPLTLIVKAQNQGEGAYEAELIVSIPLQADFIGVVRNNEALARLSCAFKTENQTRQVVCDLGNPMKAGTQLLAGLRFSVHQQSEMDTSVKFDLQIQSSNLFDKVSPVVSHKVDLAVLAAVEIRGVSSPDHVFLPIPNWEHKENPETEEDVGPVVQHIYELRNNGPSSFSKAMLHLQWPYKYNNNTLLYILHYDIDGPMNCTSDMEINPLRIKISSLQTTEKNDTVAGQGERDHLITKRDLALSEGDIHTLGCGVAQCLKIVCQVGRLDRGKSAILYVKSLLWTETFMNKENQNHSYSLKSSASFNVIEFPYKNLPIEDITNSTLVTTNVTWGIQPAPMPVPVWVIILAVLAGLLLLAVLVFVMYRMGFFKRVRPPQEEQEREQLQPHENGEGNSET

Assay [1] addresses human αvβ3 integrin on cells (human), P06756. The assay can be described thus: flow cytometry, AP5-treated αvβ3-CHO cells; 50 µM cRGDfV against WOW-1 Fab.
For assay [2] the target is unchanged. Briefly: flow cytometry, AP5-treated αvβ3-CHO cells; 50 µM cRGDfV against aPB.

Molecule RGDFV (modifications not checked) [cRGDfV] gave a percent inhibition of WOW-1 Fab binding in assay [1] greater than 85%. The molecule further displayed a percent inhibition of aPB binding in assay [2] greater than 85%.
